For orientation: IC50 means the concentration that gives 50% inhibition. Higher therefore signals a need for much substance.

The chains behind the UniProt entries cited, without tags or fusion partners. Residues count along the entry.
UniProt P14740, 38-767 limits assumed: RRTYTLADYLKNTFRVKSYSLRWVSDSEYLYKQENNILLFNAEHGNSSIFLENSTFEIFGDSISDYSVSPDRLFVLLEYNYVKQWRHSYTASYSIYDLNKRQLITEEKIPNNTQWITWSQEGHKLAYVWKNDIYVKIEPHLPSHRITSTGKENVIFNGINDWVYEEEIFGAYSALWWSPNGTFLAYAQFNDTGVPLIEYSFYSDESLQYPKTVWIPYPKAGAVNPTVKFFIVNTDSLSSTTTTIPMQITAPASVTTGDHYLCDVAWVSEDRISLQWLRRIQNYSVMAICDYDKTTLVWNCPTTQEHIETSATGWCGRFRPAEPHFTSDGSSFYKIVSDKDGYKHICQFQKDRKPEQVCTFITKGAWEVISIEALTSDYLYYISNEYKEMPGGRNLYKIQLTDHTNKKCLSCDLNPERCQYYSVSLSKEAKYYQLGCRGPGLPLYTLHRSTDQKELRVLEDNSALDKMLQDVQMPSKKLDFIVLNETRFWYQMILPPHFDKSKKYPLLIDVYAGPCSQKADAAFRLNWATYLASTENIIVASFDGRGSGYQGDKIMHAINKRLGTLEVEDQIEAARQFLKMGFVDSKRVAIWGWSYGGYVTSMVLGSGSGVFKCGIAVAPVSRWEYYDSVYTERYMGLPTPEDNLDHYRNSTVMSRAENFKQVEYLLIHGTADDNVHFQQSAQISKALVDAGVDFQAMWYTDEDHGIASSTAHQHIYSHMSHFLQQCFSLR

This assay has as its target T1, DPP-IV activity in rat plasma (Rattus norvegicus, UniProt P14740).
T1 construct: 5 μl of plasma are added to 96-well flat-bottom micortiter plates; from tissue; host or cells: rat plasma
The assay can be described thus: Rat plasma DPP-IV assay. The format is biochemical.
`CC(C)(CNc1ccc(C#N)cn1)NCC(=O)N1CCC[C@H]1C#N` [Ex. 2A, 1-[[[2-[(5-cyano-2-pyridinyl)amino]-1,1-dimethylethyl]amino]acetyl]-2-cyano-(S)-pyrrolidine] gave an IC50 of 0.005 µM.

With `CC(C)(Cc1ccccc1)NCC(=O)N1CCC[C@H]1C#N` [Ex. 2CC, 1-[[(1,1-dimethyl-2-phenylethyl)amino]acetyl]-2-cyano-(S)-pyrrolidine], the IC50 stood at 0.021 µM.

Consider `N#CC1CCCN1C(=O)CNC1CCC(Oc2ccc(Cl)cc2)CC1` [Ex. 2FF, 1-[[4-[4-chlorophenoxy)cyclohexyl]amino]acetyl]-2-cyano-(S)-pyrrolidine], for which the IC50 turned out to be 0.042 µM.

Values taken from patent US6432969B1, “N-(substituted glycyl)-2 cyanopyrrolidines, pharmaceutical compositions containing them and their use in inhibiting dipeptidyl peptidase-IV” (Novartis AG, priority 2000, dated 2002).
